## scFv variants of Ab-14 (heavy chain) against a SARS-CoV-2 spike peptide

The measurements come from Engelhart et al. 2022 (doi:10.1038/s41597-022-01779-4) through the FLAb antibody collection.

Target: peptide PDVDLGDISGINAS, taken from heptad repeat 2 (HR2) of SARS-CoV-2 spike.

Ab-14 is the parent antibody, in scFv form: VH, then the linker GGGGSGGGGSGGGGS, then VL. The light chain is unchanged in all variants.
VH: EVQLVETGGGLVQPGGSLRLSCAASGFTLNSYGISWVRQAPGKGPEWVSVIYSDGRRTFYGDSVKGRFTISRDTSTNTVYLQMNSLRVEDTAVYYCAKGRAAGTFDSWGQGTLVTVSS
VL: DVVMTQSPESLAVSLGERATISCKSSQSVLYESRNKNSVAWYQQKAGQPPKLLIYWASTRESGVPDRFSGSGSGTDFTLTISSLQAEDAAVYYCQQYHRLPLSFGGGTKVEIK

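Phage display of a naive human antibody library on the peptide gave the parent. Library AAYL49 holds single substitutions and randomly drawn double and triple substitutions in the CDRs. Affinity was read by AlphaSeq, a pooled yeast mating assay with surface-displayed partners. After mating in shaken culture at 30 °C for 16 h, diploids were selected and their barcode pairs sequenced. A regression on co-assayed BCL2-family reference pairs converts the normalised counts of each replicate to an apparent Kd. The assay was run in three technical replicates.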

The parent's heavy chain CDRs are GFTLNSYGIS, VIYSDGRRTFYGDSVK, GRAAGTFDS; each variant's own CDRs replace them letter for letter.
Scale: log10 of Kd in nM, estimated from mating counts; low values are strong binders.
Averages over replicates are reported, and they cover detected replicates only.
"no signal" marks a missing value. The strain was present, yet no cells mated with the target were sequenced in any replicate, which points to weak or no binding.
As a blank, each scFv also met three strains without target: over library AAYL49, 15% of these pairings were detected, typically at 4.06 and seldom below 2.83.

log10 Kd (nM), mean | replicates with signal | CDR-H1 | CDR-H2 | CDR-H3
1.36 | 3/3 | GFTLPSYGIS | VIYSDGRRTFYGDSVK | GNAAGTFDM
no signal | 0/3 | GFTLNSDGIS | VIYADGRRTFYGDSVK | GRAAGTFMS
no signal | 0/3 | GFTLNSYHIS | VIYHDGRRTFYGDSVK | GRAAGSFDS
no signal | 0/3 | GFTLNSYGIS | VIYSDGRTTFYGDSVK | CRNAGTFDS
2.11 | 1/3 | GFTLNSYGIS | YIYSDGRRTFYGDSVK | GRAAGTFGA
5.47 | 2/3 | GFTLNSYGIS | QIYSDGRRTFYGDSVK | GGLAGTFDS
no signal | 0/3 | GFTLNSYGAS | VIYSDGRRTFYGDSVK | GRAIGTFDS
no signal | 0/3 | GFTLNSYWIS | VIYSDSRRTFYGDSVK | GRAAGTFDN
4.00 | 2/3 | DWTLNSYGIS | VIYSDGRRTFYGYSVK | GRAAGTFDS
3.65 | 1/3 | GFTTNSYGIS | VIYSDGRRTFYFDSVK | GYAAGTFDS
no signal | 0/3 | VFTLNSYGIS | VIYSDGRQTFYGDSVK | PRAAGTFDS
2.12 | 3/3 | GFTLNSYGIS | VIYSDGRRTFYGDAVK | SRAAGTFDS
no signal | 0/3 | GFTLNSYGIS | VIYSDGRHTFYQDSVK | GRAAGGFDS
2.16 | 3/3 | NFTLNSYGIS | VIYSDGRRTFYGDSVK | GDAAFTFDS
4.16 | 1/3 | GFTLNSYGIS | VIYADGRRTFYMDSVK | GRACGTFDS
no signal | 0/3 | GFTLHSPGIS | VIYSDGRRTFYGDSVK | GRAAHTFDS
3.48 | 1/3 | GFTLNSYGIS | VIYSDGRRYFWGDSVK | GRAAGTFLS
no signal | 0/3 | GFTTNSYGIS | VIYSDGRRTFHGDSVK | NRAAGTFDS
1.30 | 3/3 | AITLNSYGIS | VIYSDGLRTFYGDSVK | GRAAGTFDS
no signal | 0/3 | GFTSNSRGIS | VIYSDGIRTFYGDSVK | GRAAGTFDS
3.98 | 2/3 | GFTLNSYDIS | VIYSDGRRTFYGDSVK | GRAAGLFDD
no signal | 0/3 | GFTLNAYGIS | VIYSDGRRTFYGDSRK | GPAAGTFDS
4.81 | 1/3 | GFTLNSYGIS | VIYSNGRRTFYGNSTK | GRAAGTFDS
5.53 | 1/3 | GFTHNSYGIS | PIYSDGRRTHYGDSVK | GRAAGTFDS
5.25 | 3/3 | GFTFNKYGIS | GIYSDGRRTFYGDSVK | GRAAGTFDS
1.07 | 3/3 | SFTLNSYGIS | VIYSDGRRTFYGDSVK | GRAAGTFDD
no signal | 0/3 | GFTLNSYNIS | VIYSDGRRTFYGDSVK | GTAAGTFES
no signal | 0/3 | GFTYNSYGIS | VIYSDKRRTHYGDSVK | GRAAGTFDS
4.47 | 3/3 | GFTLNSYGIS | VIYSDGRITQYGDSVK | GRAAGTADS
no signal | 0/3 | GFTLNSYGIS | VIYMDGRRYFYGDSVK | GRAAGTFRS
no signal | 0/3 | GFGLNSYGIS | VIYSDGRRTFYGDSVM | TRAAGTFDS
4.43 | 2/3 | GFTLNSAGIS | VIYSLGRRTFEGDSVK | GRAAGTFDS
no signal | 0/3 | GFTLNSCGIS | VNYSDGRRTFYGDSVK | GRAAGRFDS
3.47 | 1/3 | GFTKNSYGIS | VIYSDGRRTSYGDSVK | KRAAGTFDS
no signal | 0/3 | GFTLNSYGIY | VIYSDGRRTFYGDYVK | GPAAGTFDS
4.23 | 1/3 | GFTLNSYGIH | KIYSDGRRTFYGDSVK | GRAAGTFDL
3.27 | 3/3 | GFTLVSYGIS | VIYSDGRRTFYGDSVK | GRTAGTFAS
3.50 | 1/3 | GFTLNSYGID | WIYSAGRRTFYGDSVK | GRAAGTFDS
no signal | 0/3 | GFTLNSFGIS | VIYSDGRRTFYGDSVH | GRAAGTRDS
2.73 | 2/3 | GFTLNSMGIS | VIYSDGRRTFYGDSVK | GRAWGTQDS
3.36 | 1/3 | GFTLNSYGIS | VIYSDGRFTFYGMSVS | GRAAGTFDS
3.50 | 2/3 | GFTLNSYGIS | VIYSDGRMTFYGDSVK | GEAAGTVDS
no signal | 0/3 | GFTLNEYGIS | NIYSDGRRNFYGDSVK | GRAAGTFDS
no signal | 0/3 | GFTLNSYGIS | NIYSDGRRTFYGDSRK | GRAAFTFDS
no signal | 0/3 | GFTLNSYGIS | VINEDGRRTFYGDSVK | GRAAGPFDS

Excerpt, the final 3 entries:

CDR-H1,CDR-H2,CDR-H3,"log10 Kd (nM), mean",replicates with signal
GFTLNEYGIS,NIYSDGRRNFYGDSVK,GRAAGTFDS,no signal,0/3
GFTLNSYGIS,NIYSDGRRTFYGDSRK,GRAAFTFDS,no signal,0/3
GFTLNSYGIS,VINEDGRRTFYGDSVK,GRAAGPFDS,no signal,0/3

Parent in this assay: reference entry 0.65, copy in this library 4.11 (one replicate of three).